The source of these data is paper PMC12287680, “Efficient Acyloxymethylation of Psilocin and Other Tryptamines Yielding ACOM Prodrugs for Psychedelic‐Assisted Therapy” (Archiv Der Pharmazie, 2025).

The term half-life denotes the time needed for the level to fall by half in the phase considered.

Series [1] in a line: Half-lives in pooled human plasma at 37°C. The series is classed as in vitro ADME. As to conditions: 100% (undiluted) pooled human plasma, 100% pooled human plasma, [ASA]0 = 560 µM. As to the method: As a measure of the drug release rate in the systemic blood circulation, we determined the half‐lives of 15, 16, and 23–26 in pooled human plasma. […] This illustrates that the drug release kinetics in human plasma are highly dependent upon the chosen acyl residue, which allows for tailoring the prodrug's pharmacokinetic profile to the therapeutic requirements. To assess the contribution of nonspecific hydrolysis to the observed kinetics, we incubated the prodrugs at the same concentration in the buffer used to dilute the plasma samples.
The kinetic studies were carried out by following the loss of substrate under the indicated conditions using HPLC‐UV. Pooled human plasma was obtained commercially (Biowest, France), while human saliva was freshly collected with the written informed consent of the saliva donors. […] Pseudo‐first‐order rate constants for the observed degradation were determined from the slope of linear plots of ln(peak area) versus time. […]
^a The release kinetics of the prodrugs were evaluated in vitro in analogy to the precedent literature.^[1] […] The samples were immediately quenched with acetonitrile (2:1), centrifuged, decanted, and analyzed via HPLC-UV. Half-lives were determined assuming first-order kinetics; specific values are the mean of triplicates ± standard deviation. […]

For series [2] the following is noted: literature value, supplement ref 3; cited from earlier work.

For `CC(=O)Oc1ccccc1C(=O)O` [ASA, Acetylsalicylic acid, reference compound], the half-life at 560 µM in series [1] was 2.43 ± 0.317 h. In series [2], the “t1/2 (lit.) in human plasma” value was 2.17 ± 0.8 h.
